Experimental data from patent publication US12281098B2, “Five-membered-fused six-membered compound, preparation method, pharmaceutical composition and use” (HANGZHOU POLYMED BIOPHARMACEUTICALS, INC., priority 2021, dated 2025).
Like-named read-outs stand apart in the source and are kept apart here.

Amino acid sequences for entries named in this document (tags omitted).
UniProt Q9NWZ3, whole entry: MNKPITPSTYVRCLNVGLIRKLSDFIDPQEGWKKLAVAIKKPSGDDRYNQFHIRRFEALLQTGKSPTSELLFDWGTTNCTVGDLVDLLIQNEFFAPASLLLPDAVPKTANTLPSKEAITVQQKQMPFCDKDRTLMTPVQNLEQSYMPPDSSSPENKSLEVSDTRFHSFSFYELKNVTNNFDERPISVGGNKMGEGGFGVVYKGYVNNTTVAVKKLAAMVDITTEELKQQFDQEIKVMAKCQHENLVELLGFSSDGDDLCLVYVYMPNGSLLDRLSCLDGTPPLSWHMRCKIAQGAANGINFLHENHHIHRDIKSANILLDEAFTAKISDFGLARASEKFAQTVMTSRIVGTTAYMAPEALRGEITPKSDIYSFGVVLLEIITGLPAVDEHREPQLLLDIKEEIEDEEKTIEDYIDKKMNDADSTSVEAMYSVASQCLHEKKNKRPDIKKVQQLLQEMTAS

Key:
IRAK4 kinase = IRAK4 kinase (Homo sapiens, UniProt Q9NWZ3); assay: Compound inhibition of IRAK4 kinase activity (fluorescence microfluidic mobility shift assay); details: read-out: IRAK4 IC50, 10 μM ATP, 6 nM IRAK4 kinase
Method: Based on the experimental method of fluorescence microfluidic mobility shift assay, the IC50 value of the compound for competitive binding of ATP to IRAK4 kinase was determined. The initial detection concentration of the compound was 10 μM, which was 4-fold serially diluted to 0.38 nM and assayed in duplicate. In this case, commercially available staurosporine was the standard control for the assay.
1) IRAK4 kinase was dissolved in kinase buffer (50 mM HEPES pH 7.5, 10 mM MgCl2, 2 mM DDT, and 0.01% Brij-35) at a final concentration of 6 nM.
2) The substrate peptide FAM-P8 and ATP were dissolved in the above kinase buffer, and the final concentrations of the substrate peptide FAM-P8 and ATP for IRAK4 were 3 μM and 10 μM, respectively.
3) Compound dilution: The compound was first diluted to 50 μM, and then 4-fold serially diluted with DMSO. In this case, the solution without compound and kinase served as the blank control, corresponding to the “minimum value” shown below; the solution without compound but containing kinase, adenosine 5′-triphosphate disodium salt hydrate, DMSO, and the buffer served as the positive control, corresponding to the “maximum value” shown below.
4) Kinase reaction and termination: 10 μL of the kinase buffer was added to a 384-well plate containing 5 μL of the compound to be tested, and the mixture was incubated at room temperature for 10 minutes; another 10 μL of buffer containing the substrate peptide and adenosine 5′-triphosphate disodium salt hydrate was added to the 384-well plate, and after incubation at 28° C. for 1 hour, 25 μL of termination solution (100 mM HEPES pH 7.5, 50 mM EDTA, 0.2% Coating Reagent #3, and 0.015% Brij-35) was added to each well to terminate the reaction.
5) Data reading: CaliperEZ Reader II instrument was used to read the conversion rate data. Setting conditions: downstream voltage as −500 V, upstream voltage as −2250 V, base pressure as −0.5 PSI, and screening pressure as −1.2 PSI.
6) Data calculation: the conversion rate data was copied from CaliperEZ Reader II, and the conversion rate was converted into inhibition rate data. The calculation formula is as follows: Inhibition percentage (%)=(maximum value−conversion rate)/(maximum value−minimum value)*100%
IC50 values were fitted with XLFit excel add-in version 5.4.0.8.

[1] = target: IRAK4 protein in THP-1 cells (Homo sapiens, UniProt Q9NWZ3); assay: IRAK4 protein degradation in THP-1 induced by PROTAC (Western Blot); details: GAPDH internal reference
Method: 3.1. Based on the experimental method of immunoblot, i.e., Western Blot, THP-1 cell samples processed by gel electrophoresis were stained with specific antibodies, and the degradation activity of the compounds on the IRAK4 protein in THP-1 cells was determined by analyzing the position of the staining and the depth of the staining. The detection concentrations of the compounds were 0 μM, 0.3 μM, 1 μM, and 3 μM, and the compounds were used to treat the cells for 8 hours, 16 hours, 24 hours, and 48 hours. In this case, glyceraldehyde-3-phosphate dehydrogenase (GAPDH) was the internal reference protein for the assay.
THP-1 cells were spread into a 6-well plate at a density of 1.5×10^6 cells per mL, and incubated in a 37° C. cell culture incubator with 5% CO2 for 2 hours. The compound was diluted with DMSO to 0.6 mM, 0.2 mM, and 0.06 mM, respectively. 10 μL of compound solution was added to the corresponding wells, and the plate was incubated in the incubator for 16 hours, 24 hours, and 48 hours, respectively. The drug-treated THP-1 cells were collected from the wells, added with 120 μL of RIPA lysis buffer containing protease inhibitor, phosphatase inhibitor cocktail 2, and phosphatase inhibitor cocktail 3, and lysed on wet ice for 30 minutes. The cell lysate was then centrifuged at low temperature and high speed for 5 minutes, and the supernatant was collected. Referring to the instructions in the Pierce™ BCA Protein Assay Kit, the cell samples were tested for protein concentration.
The samples were adjusted to the same concentration using lysis buffer and NuPAGE® LDS sample buffer containing 1 M DTT. The samples were heated at 95° C. for 5 minutes and centrifuged at low temperature and high speed. 20 μL of prepared protein sample and 4 μL of PageRuler Prestained Protein Ladder were added to the gel wells. The mixture was electrophoresed at a voltage of 80 V for 0.5 hours, and then electrophoresed for another 1.5 hours after the voltage was adjusted to 120 V. The gel was removed and proteins in the gel were transferred to IBlot™ 2 Transfer Stack at a voltage of 20V. After successful membrane transfer, the bands were cut out at 65 kDa to 40 kDa and 40 kDa to 30 kDa, respectively. The membrane was blocked with 5% non-fat milk at room temperature for 1 hour. The membrane was washed three times with 1×TBST, and incubated with IRAK4 antibody working solution at 4° C. overnight. The IRAK4 antibody working solution was discarded, and the membrane was washed three times with 1×TBST. After the corresponding membrane was incubated with Goat Anti-Rabbit IgG H&L (HRP) working solution and Goat Anti-Mouse IgG H&L (HRP) working solution at room temperature for 1 hour, the antibody working solutions were discarded, and the membrane was washed three times with 1×TBST. Referring to the instructions in the SuperSignal™ West Femto Maximum Sensitivity Substrate Kit, the reagents in the kit were mixed in equal volume proportions to prepare a luminescent mixture, and the membrane was incubated for 1 minute and removed for exposure.
WB assay: The results 24 hours after administration at 1 μM were divided into estimated <25%, <50%, <75%, and <100%.

THP-1 cells = assay: LPS-stimulated cytokine (TNFα) release in THP-1; details: read-out: Inhibition IC50 (nM) of cytokines (TNFα) against LPS-stimulated inflammatory responses in THP-1 cells, LPS 100 ng/mL, 5 hours, TNF-α ELISA
Method: THP-1 cells were cultured in suspension in RPMI 1640 complete medium (containing 10% serum, 1% penicillin-streptomycin, and 55 μM β-mercaptoethanol). THP-1 cells were collected, centrifuged at 350×g at room temperature to discard the supernatant, and resuspended in RPMI 1640 complete medium to a concentration of 2×10^6 cells per mL. THP-1 cells were spread into a 96-well plate at a concentration of 2×10^5 cells per well, and different concentrations of the compound to be tested were added thereto. The plate was incubated in a 37° C. cell culture incubator with 5% CO2 for 60 minutes. 50 μL of LPS at a final concentration of 100 ng/mL was added to a 96-well plate, and incubated in a 37° C. cell culture incubator for 5 hours. The cell culture plate was then taken out from the incubator, and centrifuged at 350×g at low temperature for 5 minutes to collect 150 μL of the supernatant. Referring to the instructions in the Human TNF-α Duoset ELISA Kit, the level of TNF-α in the cell culture supernatant was detected.
Data on the inhibitory activity of cytokines (TNFα) against LPS-stimulated inflammatory responses in THP-1 cells are shown in Tables 3 and 4.

SMILES	IC50 (IRAK4 kinase; Table 1) [nM]	IC50 (IRAK4 kinase; Table 2) [nM]	Western Blot results 24 hours after administration at a drug concentration of 1 μM ([1]; Table 6, estimated bins) [%]	IC50 (THP-1 cells; Table 4) [nM]	IC50 (THP-1 cells; Table 3) [nM]	Western Blot results 24 hours after administration at a drug concentration of 1 μM ([1]; Table 5, estimated bins) [%]
O=C1CCC(N2C(=O)c3cccc(NCCOCCOCCN4Cc5cc(NC(=O)c6cccc(C(F)(F)F)n6)c(Br)cc5C4=O)c3C2=O)C(=O)N1 (stereo not shown)	1000 to 10000	1000 to 10000				
COc1cc2c(cc1NC(=O)c1cccc(C(F)(F)F)n1)CN(CCN1CCN(CC(=O)N3CC4(CC(N[C@H](C(=O)N5C[C@H](O)C[C@H]5C(=O)N[C@@H](C)c5ccc(-c6scnc6C)cc5)C(C)(C)C)C4)C3)CC1)C2=O		100 to 1000	<25			
COc1cc2nn(CCN3CCN(CC(=O)N4CCC5(CCC(C(=O)N[C@H](C(=O)N6C[C@H](O)C[C@H]6C(=O)N[C@@H](C)c6ccc(-c7scnc7C)cc6)C(C)(C)C)CC5)CC4)C3=O)cc2cc1NC(=O)c1cccc(C(F)(F)F)n1	< 100	< 100		1000 to 10000		
COc1cc2nn(CCN3CCN(CC(=O)N4CCC5(CC4)CN(c4cccc6c4C(=O)N(C4CCC(=O)NC4=O)C6=O)C5)C3=O)cc2cc1NC(=O)c1cccc(C(F)(F)F)n1 (stereo not shown)	100 to 1000	100 to 1000		1000 to 10000	1000 to 10000	
COc1cc2nn(CCN3CCC(OCC#Cc4cccc5c4C(=O)N(C4CCC(=O)NC4=O)C5=O)CC3)cc2cc1NC(=O)c1cccc(C(F)(F)F)n1 (stereo not shown)		< 100	<25			
COc1cc2nn(CCN3CCN(CC(=O)N4CCC5(CC4)CC(C(=O)N[C@H](C(=O)N4C[C@H](O)C[C@H]4C(=O)N[C@@H](C)c4ccc(-c6scnc6C)cc4)C(C)(C)C)C5)C3=O)cc2cc1NC(=O)c1cccc(C(F)(F)F)n1	100 to 1000	100 to 1000		1000 to 10000	1000 to 10000	
COc1cc2c(cc1NC(=O)c1cccc(C(F)(F)F)n1)CN(CCC(C)(C)C(=O)N1CC3(CC(CC(=O)N[C@H](C(=O)N4C[C@H](O)C[C@H]4C(=O)N[C@@H](C)c4ccc(-c5scnc5C)cc4)C(C)(C)C)C3)C1)C2=O	100 to 1000	100 to 1000	<25	100 to 1000	100 to 1000	<25
COc1cc2nn(CCN3CCN(CC(=O)N4CC5(CC(CC(=O)N[C@H](C(=O)N6C[C@H](O)C[C@H]6C(=O)N[C@@H](C)c6ccc(-c7scnc7C)cc6)C(C)(C)C)C5)C4)C3=O)cc2cc1NC(=O)c1cccc(C(F)(F)F)n1	< 100	< 100		1000 to 10000	1000 to 10000	
COc1cc2nn(CCN3CCN(CC(=O)N4CCC5(CC4)CC(N[C@H](C(=O)N4C[C@H](O)C[C@H]4C(=O)N[C@@H](C)c4ccc(-c6scnc6C)cc4)C(C)(C)C)C5)C3=O)cc2cc1NC(=O)c1cccc(C(F)(F)F)n1		< 100	<25			
COc1cc2c(cc1NC(=O)c1cccc(C(F)(F)F)n1)CN(CCC(C)(C)C(=O)N1CCC3(CC1)CCN(c1cnc(C(=O)N[C@H](C(=O)N4C[C@H](O)C[C@H]4C(=O)N[C@@H](C)c4ccc(-c5scnc5C)cc4)C(C)(C)C)cn1)CC3)C2=O		< 100		1000 to 10000		
